Read-outs that look alike come from different tables or passages of the source.

Amino acid sequences for entries named in this document (tags omitted). Residues count along the entry.
UniProt P01116, 1-169 isoform 2 G12R limits assumed: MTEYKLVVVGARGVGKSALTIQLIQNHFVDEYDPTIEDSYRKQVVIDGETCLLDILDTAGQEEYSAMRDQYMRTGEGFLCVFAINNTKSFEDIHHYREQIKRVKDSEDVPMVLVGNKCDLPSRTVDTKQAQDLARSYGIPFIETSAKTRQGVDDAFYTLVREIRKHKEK

In experiment [1] the target is Avi-KRAS G12R (1-169) GppNHp/RAF1 RBD-3xFLAG (52-151) (Homo sapiens, UniProt P01116, G12R). Nature of the experiment: Raf1-KRAS G12R-GppNHP disruption HTRF assay (Biological Example 1). The following applies: read-out: Raf1-GppNHp-KRAS G12R disruption; KRAS G12R, GppNHp-loaded; class symbols.
The next experiment deals with SW620 cells (KRAS G12V). Description: Cell-based pERK HTRF assay in SW620 cell (Biological Example 4). A general note: TR-FRET usually uses a lanthanide donor and a delayed reading to cut background.
The subject of a further experiment is AsPC-1 cells (KRAS G12D). Description: Cell-based pERK HTRF assay in AsPC-1 cells (Biological Example 5). The following applies: read-out: AsPC-1 pERK HTRF IC50; AsPC-1 (KRAS G12D) cells. On the procedure:
(§1) Biological Example 5: Cell-based PERK HTRF assay in AsPC-1, SW1900, HPAC, Capan-2, RKN, H358, HCT116, KP-2, H1573, A549, MKN1, and HT1080 cells
(§2) The inhibition of ERK phosphorylation, as measured using the HTRF Advanced Phospho-ERK 1/2 (Thr202/Tyr204) Detection Assay kit (Perkin Elmer), was used to determine the effectiveness of test compounds in disrupting KRAS-driven protein/effector signaling in cells.
(§3) On day 1, cells were seeded into 96-well plates at 2.5×10^4 cells/well in 100 μL of complete growth media supplemented with 10% fetal bovine serum (FBS) and incubated at 37° C., in the presence of 5% CO2.
(§4) On day 2, cells were treated with compounds diluted in DMSO at 0.25% final DMSO concentration. Compounds were dosed in a 9-point concentration curve with three-fold dilution between concentrations. Cells were incubated in the presence of compound for two hours at 37° C. […]
(§5) Following this incubation period, plates were centrifuged at 500×g for one minute and analyzed on a CLARIOstar plate reader. Data was imported into Microsoft Excel and the signal from the 665 nm channel was divided by the signal from the 620 nm channel. % pERK was calculated as: […]
(§6) Data was imported to the Prism software package (Graphpad) and EC50 values were calculated using the log (inhibitor) vs, response—variable slopc (Four parameters) model.

Experiment [2] deals with MKN1 cells (KRAS amplification). Nature of the experiment: Cell-based pERK HTRF assay in MKN1 cells (Biological Example 5). Particulars: read-out: MKN pERK HTRF IC50. As to the method:
as §1, §2, §3, §4, §5, §6

In the next experiment the test system is HPAC cells (KRAS G12D). Nature of the experiment: 3D Cell viability assay in HPAC cells (Biological Example 6). Particulars: read-out: HPAC 3D cell viability IC50; HPAC (KRAS G12D) spheroids, 72 hours. As to the method:
(§7) Biological Example 6: 3D Cell viability assay in AsPC-1, SW1900, HPAC, Capan-2, RKN, H358, HCT116, KP-2, H1573, A549, MKN1, and HT1080 cells
(§8) The inhibition of cellular viability as a result of test compound treatment in a spheroid assay was measured using the CellTiter-Glow 3D Cell Viability Assay (Promega).
(§9) On Day 1, 1000 cells per well were seeded in 150 μL of complete growth media supplemented with 10% fetal bovine serum (FBS) and incubated at 37° C., in the presence of 5% CO2 in 96-well ultra-low attachment microplates (Corning) for 48 hours undisturbed to allow spheroids to form.
(§10) Following spheroid formation, cells were treated with compounds diluted in DMSO at 0.25% final DMSO concentration. Compounds were dosed in a 9-point concentration curve with three-fold dilution between concentrations. […]
(§11) Following this incubation period, the kit-provided CTG reagent was allowed to equilibrate for 30 minutes at room temperature, 150 μL of equilibrated CTG reagent was added to each well, and the plate was sealed before shaking at 250 rpm for 10 minutes at room temperature to lyse the cells, 150 μL of lysate per well was transferred to a 96-well plate and luminescence was read on a CLARIOstar plate reader.
(§12) Data was imported into the Prism software package (Graphpad) and EC50 values were calculated using the log (inhibitor) vs, response—variable slope (Four parameters) model.

Experiment [3] deals with Capan-2 cells (KRAS G12V). Nature of the experiment: 3D Cell viability assay in Capan-2 cells (Biological Example 6). Particulars: read-out: Capan-2 3D cell viability IC50; Capan-2 (KRAS G12V) spheroids, 72 hours. On the procedure: as §7, §8, §9, §10, §11, §12
Experiment [4] has as its system MKN1 cells (KRAS amplification). Description: 3D Cell viability assay in MKN1 cells (Biological Example 6). The following applies: read-out: MKN 3D cell viability IC50; MKN (MKN1, KRAS amplification) spheroids, 72 hours. As to the method:
as §7, §8, §9, §10, §11, §12

Turning to `CCN(c1nc(OC[C@@]23CCCN2C[C@H](F)C3)nc2c(F)c(-c3ccc(F)c4sc(N)c(C#N)c34)c(C(F)(F)F)cc12)[C@H]1CCN(C(=O)OC2COC2)C1`, the IC50 was less than 0.1 µM in experiment [1]; less than 0.1 µM with SW620 cells (KRAS G12V) (read-out: PERK-SW620, pERK HTRF, class symbols); less than 0.1 µM in the experiment on SW620 cells (KRAS G12V) (read-out: pERK-SW620); less than 0.1 µM in the experiment with AsPC-1 cells (KRAS G12D); less than 0.1 µM in experiment [2]; 0.1 to 1 µM in the experiment on HPAC cells (KRAS G12D). For the same compound, the IC50 in experiment [3] and in experiment [4] was less than 0.1 µM in each case.

The values are drawn from patent US20260042764A1, “COMPOSITIONS AND METHODS FOR INHIBITION OF KRAS” (TheRas, Inc., priority 2022, published 2026).
